# Where two headings read alike, the source gives them in different places.
# Experiments:
# [1] = target: NSCLC L7: TCRs on CD4+ T cells
# [2] = target: NSCLC L7: TCRs on CD4+ T cells; assay: ex vivo pMHCII multimer staining of patient PBMCs, flow cytometry, PE / APC
# [3] = target: NSCLC L7: TCRs on CD4+ T cells; assay: ex vivo pMHCII multimer staining of patient PBMCs, flow cytometry, PE / BV711
# [4] = target: NSCLC L7: TCRs on CD4+ T cells; assay: ex vivo pMHCII multimer staining of patient PBMCs, flow cytometry, PE / PE-CF594
substance,measurement,setting,value
L7-ASP0034 DRB1*07:01 (peptide-MHC),multimer-positive frequency of CD4+ T cells,[1],0.002%
L7-ASP0046 DRB1*12:01 (peptide-MHC),multimer-positive frequency of CD4+ T cells,[2],0.001%
L7-ASP0043 DRB1*07:01 (peptide-MHC),multimer-positive frequency of CD4+ T cells,[3],0.003%
L7-ASP0043 DRB1*12:01 (peptide-MHC),multimer-positive frequency of CD4+ T cells,[4],0.003%
L7-ASP0064 DRB1*07:01 (peptide-MHC),multimer-positive frequency of CD4+ T cells,[1],0.034%

# Source: US20260031189A1, “METHOD AND SYSTEMS FOR PREDICTION OF HLA CLASS II-SPECIFIC EPITOPES AND CHARACTERIZATION OF CD4+ T CELLS” (BioNTech US Inc., priority 2022, published 2026)
